Among the data in publication PMC5673638 (Frontiers in Microbiology, 2017) are Adverse events, Terminal half-lives and t1/2 values, retold here.

The conditions of series [1]: mouse, in vivo.
For series [2] the following is noted: mouse, in vivo, iv.

On to “D,L-lysine acetylsalicylate ⋅ glycine [BAY 81-8781]”, for which, in series [1], the Adverse events entry is recorded as “no adverse events were found”.
On to salicylate, for which, in series [2], the Terminal half-lives entry is “short” and the t1/2 is 31.5 min.
